Values of other authors as cited in paper PMC8253905.

Chains of the proteins cited; added tags and fusions are not shown. Lines headed by an entry give the natural chain unless they say otherwise; changes in a name come on top. Residues count along the entry.
UniProt P0A9D4: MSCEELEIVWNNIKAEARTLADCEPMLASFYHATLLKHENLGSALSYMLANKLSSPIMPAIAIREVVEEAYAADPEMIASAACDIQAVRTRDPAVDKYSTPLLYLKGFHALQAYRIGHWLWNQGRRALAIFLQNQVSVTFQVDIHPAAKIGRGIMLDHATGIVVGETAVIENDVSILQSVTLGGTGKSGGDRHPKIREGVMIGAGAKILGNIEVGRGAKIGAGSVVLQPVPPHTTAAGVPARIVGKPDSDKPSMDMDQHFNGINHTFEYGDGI
UniProt P0ABK5, 2-323: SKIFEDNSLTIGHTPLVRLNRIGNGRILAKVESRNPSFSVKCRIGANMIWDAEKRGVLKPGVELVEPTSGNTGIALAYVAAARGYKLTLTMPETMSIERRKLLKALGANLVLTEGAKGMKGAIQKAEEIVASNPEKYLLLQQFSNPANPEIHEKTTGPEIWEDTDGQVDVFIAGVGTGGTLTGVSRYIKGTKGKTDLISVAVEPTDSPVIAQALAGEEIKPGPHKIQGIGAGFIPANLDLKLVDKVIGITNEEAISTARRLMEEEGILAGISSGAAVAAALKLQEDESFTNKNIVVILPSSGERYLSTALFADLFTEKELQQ

Target: CysE (Escherichia coli) (UniProt P0A9D4)

## CysK (from UniProt P0ABK5)
  Kd: 6 nM
